The series is described as follows: Human liver microsome (HLM) metabolic stability assay. Format: in vitro ADME. The note with it: pooled human liver microsomes, HLM 0.5 mg/mL, test compound 0.5 μM, NADPH, 37° C., 0-30 minutes, Experiment 2, read-out: t1/2 (min) Experiment 2. The method, then:
Microsomal Assay: Human liver microsomes (20 mg/mL) were obtained from Xenotech, LLC (Lenexa, Kans.). β-nicotinamide adenine dinucleotide phosphate, reduced form (NADPH), magnesium chloride (MgCl2), and dimethyl sulfoxide (DMSO) were purchased from Sigma-Aldrich. The incubation mixtures were prepared according to Table 2:
Determination of Metabolic Stability: Two aliquots of this reaction mixture were used for a compound of this invention. The aliquots were incubated in a shaking water bath at 37° C. for 3 minutes. The test compound was then added into each aliquot at a final concentration of 0.5 μM. The reaction was initiated by the addition of cofactor (NADPH) into one aliquot (the other aliquot lacking NADPH served as the negative control). Both aliquots were then incubated in a shaking water bath at 37° C. […]
Data analysis: The in vitro half-lives (t1/2s) for test compounds were calculated from the slopes of the linear regression of % parent remaining (ln) vs incubation time relationship. in vitro t1/2=0.693/k […]
The metabolic stability of compounds of Formula I was tested using pooled liver microsomal incubations. […] Samples of the test compounds, exposed to pooled human liver microsomes, were analyzed using HPLC-MS (or MS/MS) detection. […]
Background: Liver microsomes are vesicles of endoplasmic reticulum, rich in cytochrome P450 enzymes.

Half-life data for one compound are collected here from US8338425B2, “Heterocyclic kinase inhibitors” (Concert Pharmaceuticals, Inc., priority 2007, dated 2012).

SMILES strings stand for the structures.

Regarding `[2H]C([2H])(O)CN1CCN(c2cc(Nc3ncc(C(=O)Nc4c(Cl)cccc4C([2H])([2H])[2H])s3)nc(C)n2)CC1` [Compound 101, N-(2-Chloro-6-(methyl-d3)phenyl)-2-(6-(4-(2,2-d2-2-hydroxyethyl)piperazin-1-yl)-2-methylpyrimidin-4-ylamino)thiazole-5-carboxamide], the half-life at 0.5 μM turned out to be 18 min.
